For the test, the target named is Cannabinoid receptor 1 (Mus musculus, UniProt P47746).

Sequences of proteins named here, by UniProt entry; tags and fusion partners are left off.
UniProt P47746, whole entry: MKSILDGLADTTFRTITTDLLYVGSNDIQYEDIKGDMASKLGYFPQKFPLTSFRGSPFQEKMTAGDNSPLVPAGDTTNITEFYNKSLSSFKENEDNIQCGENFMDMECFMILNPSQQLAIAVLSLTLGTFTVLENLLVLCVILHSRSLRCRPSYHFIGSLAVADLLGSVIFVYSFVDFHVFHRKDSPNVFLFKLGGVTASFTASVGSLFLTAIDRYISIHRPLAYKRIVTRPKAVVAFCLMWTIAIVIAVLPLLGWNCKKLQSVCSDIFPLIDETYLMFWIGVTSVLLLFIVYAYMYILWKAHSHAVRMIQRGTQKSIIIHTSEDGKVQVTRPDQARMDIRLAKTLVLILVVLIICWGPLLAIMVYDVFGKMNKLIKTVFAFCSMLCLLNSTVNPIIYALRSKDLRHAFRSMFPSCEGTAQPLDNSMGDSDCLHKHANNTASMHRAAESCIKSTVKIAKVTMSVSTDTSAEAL

Our source for the Ki values is BindingDB's records for PubMed 11160626 (Japan Tobacco, 2001).

By Ki is commonly meant the dissociation constant of the complex between target and ligand, obtained from inhibition or displacement. As for `CCCCCc1cc(O)c2c(c1)OC(C)(C)[C@@H]1CCC(C)=CC21` (stereo partly specified) [Tetrahydrocannabinol], the Ki is 8.33 nM.
